Data reported in patent US9090589B2, “Specific nNOS inhibitors for the therapy and prevention of human melanoma” (priority 2011, dated 2015).

Biological target: nNOS (Rattus norvegicus (Rat), UniProt P29476)
Experiment: biochemical
Assay type: biochemical
Conditions: recombinant isozyme

Ki | SMILES
880 nM | Cc1cc(N)nc(C[C@H]2CNC[C@@H]2NCCNCCc2ccccc2)c1 [Compound 4, N^1-((3R,4S)-4-((6-amino-4-methylpyridin-2-yl)methyl)pyrrolidin-3-yl)-N^2-phenethylethane-1,2-diamine]
24 nM | Cc1cc(N)nc(C[C@H]2CNC[C@H]2NCCNCCc2ccccc2)c1 [Compound 7, N^1-((3S,4S)-4-((6-amino-4-methylpyridin-2-yl)methyl)pyrrolidin-3-yl)-N^2-phenethylethane-1,2-diamine]
